Reference: ChEMBL document CHEMBL5335823, “Synthesis, biological evaluation, and stability studies of raloxifene mono- and bis-sulfamates as dual-targeting agents” (Bioorg Med Chem, 2024)

The chains behind the UniProt entries cited, without tags or fusion partners. Where a name states a change or a piece, a line headed by the entry shows the natural chain unless it says otherwise.
UniProt P08842: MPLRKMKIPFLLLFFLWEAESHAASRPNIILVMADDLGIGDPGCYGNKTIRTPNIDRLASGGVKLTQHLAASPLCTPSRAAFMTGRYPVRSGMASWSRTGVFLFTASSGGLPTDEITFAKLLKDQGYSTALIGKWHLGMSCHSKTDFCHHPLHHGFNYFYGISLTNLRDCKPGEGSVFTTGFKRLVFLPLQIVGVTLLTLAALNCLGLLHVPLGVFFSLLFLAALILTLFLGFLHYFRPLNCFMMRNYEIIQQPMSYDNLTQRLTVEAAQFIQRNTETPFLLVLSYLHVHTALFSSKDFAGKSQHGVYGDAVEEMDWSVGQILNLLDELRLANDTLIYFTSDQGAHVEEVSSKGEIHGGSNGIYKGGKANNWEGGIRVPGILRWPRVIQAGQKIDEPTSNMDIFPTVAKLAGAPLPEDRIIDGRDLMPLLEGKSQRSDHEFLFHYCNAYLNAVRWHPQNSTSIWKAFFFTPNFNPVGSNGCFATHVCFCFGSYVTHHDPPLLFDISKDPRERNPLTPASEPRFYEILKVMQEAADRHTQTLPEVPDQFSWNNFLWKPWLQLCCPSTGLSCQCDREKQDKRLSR

Target: Steryl-sulfatase (Homo sapiens, UniProt P08842)
Experiment: Inhibition of STS in human JEG-3 cells assessed as inhibition of estrone E1 formation using [3H]estrone sulfate as substrate at 50 to 100 uM incubated for 20 hrs in presence of E1S by scintillation spectrometry
Type: cell-based
Conditions: dose 50-100 µM

- inhibition: 20%
Compound: O=C(c1ccc(OCCN2CCCCC2)cc1)c1c(-c2ccc(O)cc2)sc2cc(O)ccc12
